This is an account of results in patent US20010028878A1, “In vitro maturation of human oocytes in one day” (priority 1998, published 2001).

This experiment deals with immature human oocytes. As to the kind of experiment: In vitro maturation of immature human oocytes in IVM medium with lowered HSA content, pregnancy outcome. The class given is cell-based. As to conditions: content of HSA in the medium lowered from 5% to 0.5%; preliminary results. The protocol: All manipulations are carried out at 37° C. Follicular aspirates are filtered (Falcon 1060) to remove erythrocytes and small cellular debris. The retained cells are resuspended in equilibrated BBEM (Medi-Cult, Denmark) with bicarbonate and HEPEs buffers and then oocytes are isolated under a stereomicroscope and washed twice in BBEM (pH 7.2-7.4, mosmol/kg: 285±8, Modified EBS with lactate, MEM non essential amino acids, 2.5 mM HEPES, 0.1 mM Taurine, 200 mM Ultra-glutamine, 0.2 mM sodium pyruvate, 0.5 mM d-glucose, 0.8 mM MgSo4 anhydrous, 3.6 mM Ca-lactate, 1 mM NaH2PO4, 5.4 mM K2SO4, 110 mM NaCl, 1 ml/l SSR4xb (Medi-Cult, Denmark)). Immature oocytes are incubated in BBEM in 5% CO2 and air at 37° C. for 2 h before being transferred into IVM medium. […]
Oocytes are cultured singly in 25 μL drops of IVM medium under paraffin oil at 37° C. in 5% CO2 and humidified air. […] Images are recorded at approximately 24 h and again at either 36 or 48 h of culture, and the number of cells in MF-II are counted.
Oocytes are denuded with hyaluronidase (IVF Science, Sweden) and mechanical pipetting. […] The suitable embryos are scored on a scale from 1 (best) to 4 (worst) prior to replacement.

As for “Human Serum Albumin [Human Serum Albumin (HSA)]”, the “effect on pregnancy rates” value is on record as “no effect”.
